The record followed here is patent publication US8257965B2, “Arrays of biological membranes and methods and use thereof” (Corning Incorporated, priority 2001, dated 2012).

In the test the target is opioid receptor subtype δ2 (Homo sapiens, UniProt P41143). The test is described as follows: BODIPY-FL-GTPγS functional assay on opioid receptor arrays. The conditions noted are these: 25 nM BODIPY-FL-GTPγS, 3 μM GDP, 90 minutes, in the presence of dynorphin A.

Regarding dynorphin A, the “increase in basal level fluorescence” value was approximately 10 fold.
